The structures appear in SMILES notation. Only a part is listed here, and it is no random draw. Active and inactive are the calls of the source. Rule as the data show it: active = luminescence above about 3900; inactive = the rest.

The chains behind the UniProt entries cited, without tags or fusion partners.
UniProt P21728, whole entry: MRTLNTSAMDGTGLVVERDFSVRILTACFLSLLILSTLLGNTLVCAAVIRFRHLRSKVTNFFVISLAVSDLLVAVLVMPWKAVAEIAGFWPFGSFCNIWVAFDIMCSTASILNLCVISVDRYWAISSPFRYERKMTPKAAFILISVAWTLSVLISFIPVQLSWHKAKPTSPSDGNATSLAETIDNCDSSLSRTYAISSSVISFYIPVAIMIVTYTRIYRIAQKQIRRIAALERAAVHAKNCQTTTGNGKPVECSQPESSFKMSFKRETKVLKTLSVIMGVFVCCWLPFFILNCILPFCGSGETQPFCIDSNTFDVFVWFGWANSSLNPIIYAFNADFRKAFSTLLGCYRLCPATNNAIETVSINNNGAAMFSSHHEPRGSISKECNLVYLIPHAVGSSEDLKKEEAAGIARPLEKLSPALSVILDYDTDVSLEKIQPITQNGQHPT

The assay has as its target D(1A) dopamine receptor (Homo sapiens) (UniProt P21728). The assay is described as follows: D1 receptor agonism without dopamine, confirmation, mechanism study for D1 allosteric modulator project, cell-based, HEK293 D1, CRE-luciferase, secondary assay 1 (AID 646). To be noted: no dopamine, at 10 µM, stronger effect = higher value.
As for `CCOc1ncccc1C(=O)NCC1(N2CCOCC2)CCCCC1`, the luminescence was inactive: 1690.

The values are drawn from PubChem BioAssay AID646 (Vanderbilt High Throughput Screening Facility, 2007).
